Source: patent publication US11247972B2, “Compositions and methods for treating toxoplasmosis, cryptosporidiosis, and other apicomplexan protozoan related diseases” (University of Washington through its Center for …, priority 2010, dated 2022)

System: P. falciparum
Set-up: species or system Plasmodium falciparum
Details: in vivo

CCOc1ccc2cc(-c3nn(CC4CCNCC4)c4ncnc(N)c34)ccc2c1 [Compound 29, 3-(6-ethoxynaphthalen-2-yl)-1-(piperidin-4-ylmethyl)-1H-pyrazolo[3,4-d]pyrimidin-4-amine]
infection of A. stephensi midguts: prevented
infective sporozoites in dissected salivary glands: complete absence
prevalence of oocyst infections: reduced
